Patent US20060281719A1, “Oestrogen-17-sulphamates as inhibitors of steroid sulphatase” (priority 2000, published 2006)

Chains of the proteins cited; added tags and fusions are not shown. Residues count along the entry.
UniProt P08842, 22-583: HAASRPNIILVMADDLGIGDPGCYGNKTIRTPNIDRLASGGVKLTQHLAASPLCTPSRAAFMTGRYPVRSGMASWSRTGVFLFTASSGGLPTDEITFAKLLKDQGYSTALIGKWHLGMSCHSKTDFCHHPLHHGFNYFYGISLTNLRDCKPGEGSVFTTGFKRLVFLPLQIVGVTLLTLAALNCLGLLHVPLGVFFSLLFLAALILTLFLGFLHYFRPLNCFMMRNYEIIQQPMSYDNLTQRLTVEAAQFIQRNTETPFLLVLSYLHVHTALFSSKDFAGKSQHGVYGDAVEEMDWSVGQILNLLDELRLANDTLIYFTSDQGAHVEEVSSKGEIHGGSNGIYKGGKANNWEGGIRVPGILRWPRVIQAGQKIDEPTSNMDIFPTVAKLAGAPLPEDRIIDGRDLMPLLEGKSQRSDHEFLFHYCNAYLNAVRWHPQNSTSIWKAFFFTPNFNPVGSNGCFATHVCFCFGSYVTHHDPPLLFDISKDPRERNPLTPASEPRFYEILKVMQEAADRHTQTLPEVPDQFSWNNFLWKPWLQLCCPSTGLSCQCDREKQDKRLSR

Key:
[1] = test system: tubulin; experiment: Colchicine Displacement Assay (tubulin binding)
Procedure: Colchicine Displacement Assay
The protocol for this assay for tubulin binding is given below. [drawing 62]
Suitable blanks, controls are maintained at the same time and total counts added is determined.

[2] = target: oestrone sulphatase (E1-STS) (Homo sapiens, UniProt P08842); parameters: from tissue; host or cells: human term placenta (microsomal preparation); details: placental microsomes preparation; cited from earlier work

Compound | Colchicine Displacement Assay (%) [1] [%] | potency against STS relative to EMATE [2] [fold]
COc1cc2c(c(OC)c1OC)-c1ccc(OC)c(=O)cc1[C@@H](NC(C)=O)CC2 [Colchicine] | 79 | 
NS(=O)(=O)Oc1ccc2c3c(c(=O)oc2c1)CCCCC3 [Compound 667COUMATE] |  | ~3
